Assay results: article PMC6044831 (ACS Omega, 2018)

Columns and labels:
[1] = Biodistribution of radioiodinated HSA in normal ICR male mice; assay type: in vivo; details: iv tail vein, 1 μCi, n = 5, gamma counter
[2] = cited from earlier work

Row | Substance | accumulation of radioactivity in the thyroid (indicates in vivo deiodination) ([1]; 24 h post iv injection) [% ID/g] | accumulation of radioactivity in the thyroid (indicates in vivo deiodination) ([1]; 36 h post iv injection) [% ID/g] | time stable at high temperature ([2]; 60 °C) [h] | pH levels at which stable [2]
1 | [^125I] 10: HSA radioiodinated via a tyrosine ring using [^125I] NaI and chloramine-T [reference compound] | 255.1 ± 66.21 | 395.2 ± 59.98 | – | –
2 | HSA: human serum albumin protein purchased from Sigma-Aldrich | – | – | 10 | 4–9
